Reference: patent publication US10722520B2, “Heterocyclic compounds and their use in preventing or treating bacterial infections” (MUTABILIS, priority 2016, dated 2020)
Like-named read-outs stand apart in the source and are kept apart here.

The chains behind the UniProt entries cited, without tags or fusion partners. Residues count along the entry.
UniProt P05193, 21-381 limits assumed: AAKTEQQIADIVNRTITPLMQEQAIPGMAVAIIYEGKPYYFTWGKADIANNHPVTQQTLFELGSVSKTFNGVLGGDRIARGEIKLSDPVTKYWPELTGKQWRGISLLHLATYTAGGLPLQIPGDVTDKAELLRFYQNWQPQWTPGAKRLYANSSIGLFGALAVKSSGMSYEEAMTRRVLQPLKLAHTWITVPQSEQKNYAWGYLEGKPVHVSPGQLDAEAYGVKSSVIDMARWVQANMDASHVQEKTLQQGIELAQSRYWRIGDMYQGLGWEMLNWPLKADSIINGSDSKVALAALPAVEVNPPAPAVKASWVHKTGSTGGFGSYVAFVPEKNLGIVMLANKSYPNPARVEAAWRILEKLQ
UniProt P05364, 21-381: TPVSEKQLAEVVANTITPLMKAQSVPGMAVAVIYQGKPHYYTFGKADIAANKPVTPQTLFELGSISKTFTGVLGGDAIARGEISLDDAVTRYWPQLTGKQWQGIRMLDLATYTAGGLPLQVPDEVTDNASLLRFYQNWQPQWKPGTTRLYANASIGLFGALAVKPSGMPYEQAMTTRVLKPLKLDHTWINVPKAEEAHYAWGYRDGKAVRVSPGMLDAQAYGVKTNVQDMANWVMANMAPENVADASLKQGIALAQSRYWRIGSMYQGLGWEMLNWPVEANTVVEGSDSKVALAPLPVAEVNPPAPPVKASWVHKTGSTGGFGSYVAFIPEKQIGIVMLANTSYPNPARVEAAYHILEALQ
UniProt P24735, 27-397: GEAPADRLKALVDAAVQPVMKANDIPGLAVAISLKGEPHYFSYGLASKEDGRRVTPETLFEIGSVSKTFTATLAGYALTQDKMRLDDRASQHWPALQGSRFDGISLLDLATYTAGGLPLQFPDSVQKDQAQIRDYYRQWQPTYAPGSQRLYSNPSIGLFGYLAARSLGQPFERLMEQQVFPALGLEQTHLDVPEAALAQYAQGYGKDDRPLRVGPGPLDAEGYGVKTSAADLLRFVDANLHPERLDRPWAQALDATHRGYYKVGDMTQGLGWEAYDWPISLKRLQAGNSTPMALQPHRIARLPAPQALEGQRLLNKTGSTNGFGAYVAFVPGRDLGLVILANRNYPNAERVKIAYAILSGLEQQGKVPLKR

Experiments:
CMY-37 = CMY-37 (Citrobacter freundii, UniProt P05193); conditions: read-out: IC50 β-lactamase CMY-37
AmpC (P99) = AmpC (P99) (Enterobacter cloacae, UniProt P05364); conditions: read-out: IC50 β-lactamase AmpC (P99); class (C); nitrocefin 200 μM, 30-min pre-incubation, enzyme 0.2 nM
AmpC (PAE) = AmpC (PAE) (Pseudomonas aeruginosa, UniProt P24735); conditions: read-out: IC50 β-lactamase AmpC (PAE); class (C); nitrocefin 200 μM, 30-min pre-incubation, enzyme 0.4 nM
[1] = class (C), nitrocefin 200 μM, 30-min pre-incubation, enzyme 0.2 nM

In the case of `O=C1N2CC(n3ccc(CO)n3)=CC(C2)N1OS(=O)(=O)O` (stereo not shown) [Example 12, triethylammonium [3-[3-(hydroxymethyl)pyrazol-1-yl]-7-oxo-1,6-diazabicyclo[3.2.1]oct-3-en-6-yl]sulfate], the IC50 (CMY-37; [1]) is reported as 14 nM.
Work on `O=C(c1ccn(C2=CC3CN(C2)C(=O)N3OS(=O)(=O)[O-])n1)N1CCOCC1.[Na+]` (stereo not shown) [Example 31, sodium (7-oxo-3-[3-(morpholine-4-carbonyl)pyrazol-1-yl]-1,6-diazabicyclo[3.2.1]oct-3-en-6-yl) sulfate] yielded an IC50 (CMY-37) of 28 nM.
Work on `O=C1N2CC(n3ccc([C@H](O)CO)n3)=CC(C2)N1OS(=O)(=O)[O-].[Na+]` (stereo partly drawn) [Example 76, sodium [3-[3-[(1S)-1,2-dihydroxyethyl]pyrazol-1-yl]-7-oxo-1,6-diazabicyclo[3.2.1]oct-3-en-6-yl]sulfate] yielded an IC50 (CMY-37) of 28 nM.
In the case of `O=C(Nc1cc[nH]n1)c1ccn(C2=CC3CN(C2)C(=O)N3OS(=O)(=O)[O-])n1.[Na+]` (stereo not shown) [Example 85, sodium [7-oxo-3-[3-(pyrazol-3-ylcarbamoyl)pyrazol-1-yl]-1,6-diazabicyclo[3.2.1]oct-3-en-6-yl]sulfate], the IC50 (CMY-37) is reported as 14 nM.
In the case of “sodium (7-oxo-3-(3-(methoxycarbamoyl)-pyrazol-1-yl)-1,6-diazabicyclo[3.2.1]oct-3-en-6-yl) sulfate and sodium (7-oxo-3-(5-(methoxycarbamoyl)-pyrazol-1-yl)-1,6-diazabicyclo[3.2.1]oct-3-en-6-yl) sulfate [Example 27]”, the IC50 (AmpC (P99)) is reported as 33 nM, the IC50 (CMY-37; [1]) is reported as 28 nM and the IC50 (AmpC (PAE)) is reported as 350 nM.
“sodium [3-[3-[2-[tert-butyl(dimethyl)silyl]oxyethyl]pyrazol-1-yl]-7-oxo-1,6-diazabicyclo[3.2.1]oct-3-en-6-yl]sulfate [Example 69]” was tested, and the IC50 (AmpC (P99)) was 18 nM, the IC50 (CMY-37; [1]) was 14 nM and the IC50 (AmpC (PAE)) was 57 nM.
